Laboratory results published in ChEMBL document CHEMBL1125132, “Synthesis and inhibitory potency of peptides corresponding to the subunit 2 C-terminal region of herpes virus ribonucleotide reductases” (J Med Chem, 1990).

Target: Ribonucleoside-diphosphate reductase large subunit (Herpes simplex virus (type 1 / strain 17), UniProt P08543)
Assay: Inhibitory activity against HSV-1 Ribonucleoside diphosphate reductase was determined
Set-up: species or system Human alphaherpesvirus 1

CC(C)C[C@H](NC(=O)[C@H](CC(=O)O)NC(=O)[C@H](CC(N)=O)NC(=O)[C@@H](NC(=O)[C@@H](N)C(C)C)C(C)C)C(=O)O gave an IC50 of 36 µM.
